Measurements: BindingDB's records for doi:10.1016/0006-8993(87)90040-0 (St, Marianna University School of Medicine, 1987)
Counter-ions that a name gives are not always drawn.

Protein sequences, listed by entry. Tags and fused reporters are not part of them.
UniProt P61169, whole entry: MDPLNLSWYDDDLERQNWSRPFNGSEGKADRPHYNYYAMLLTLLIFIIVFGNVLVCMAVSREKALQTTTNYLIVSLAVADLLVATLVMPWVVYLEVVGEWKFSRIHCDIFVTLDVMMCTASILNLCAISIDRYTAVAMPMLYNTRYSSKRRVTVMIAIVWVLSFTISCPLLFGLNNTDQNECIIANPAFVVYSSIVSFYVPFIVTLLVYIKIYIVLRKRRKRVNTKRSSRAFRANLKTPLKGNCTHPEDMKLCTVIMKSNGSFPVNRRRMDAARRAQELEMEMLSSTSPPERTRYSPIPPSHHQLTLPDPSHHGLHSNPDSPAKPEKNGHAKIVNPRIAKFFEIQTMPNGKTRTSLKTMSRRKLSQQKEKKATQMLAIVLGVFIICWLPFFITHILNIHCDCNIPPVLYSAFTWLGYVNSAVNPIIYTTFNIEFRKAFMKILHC

Target: D(2) dopamine receptor (Rattus norvegicus, UniProt P61169)

Which Ki does the source give for `CCN(CC)CCNC(=O)c1cc(Cl)c(N)cc1OC` [4-amino-5-chloro-N-[2-(diethylamino)ethyl]-2-methoxy-benzamide;hydrochloride] here?
The Ki was 19 nM.

How did the Ki turn out when `CN1CCc2cccc3c2[C@H]1Cc1ccc(O)c(O)c1-3` [APOKYN] was run?
Its Ki is 27 nM.

How did the Ki turn out when `CN1CCN2c3ccccc3Cc3ccccc3[C@H]2C1` [MIANSERIN (+)] was run?
The Ki was 879 nM.
